# Reference: patent US7927622B1, “Methods of transnasal transport/immunization with highly adaptable carriers” (priority 1999, dated 2011)
# System: anti-TT antibodies
# Parameters: species or system mice
# Conditions: mouse, in vivo
substance,measurement,value
IFN-γ,generation of anti-TT antibodies,probably
